# Results taken from ChEMBL document CHEMBL1144937, “A specific mechanism of nonspecific inhibition” (J Med Chem, 2003).
# The chains behind the UniProt entries cited, without tags or fusion partners. Where a name states a change or a piece, a line headed by the entry shows the natural chain unless it says otherwise.
# UniProt P00811: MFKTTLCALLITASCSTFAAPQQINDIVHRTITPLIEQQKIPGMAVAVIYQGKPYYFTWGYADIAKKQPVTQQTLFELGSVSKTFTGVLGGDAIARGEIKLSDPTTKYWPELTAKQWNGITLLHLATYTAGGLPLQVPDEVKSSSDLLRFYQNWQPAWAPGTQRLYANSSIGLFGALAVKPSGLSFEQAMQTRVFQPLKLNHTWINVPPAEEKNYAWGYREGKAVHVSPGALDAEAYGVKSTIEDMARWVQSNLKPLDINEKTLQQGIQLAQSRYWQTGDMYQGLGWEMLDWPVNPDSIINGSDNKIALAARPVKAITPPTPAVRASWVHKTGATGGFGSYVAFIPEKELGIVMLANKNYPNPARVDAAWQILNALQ
# What was measured:
# [1] = molecular target: Beta-lactamase (Escherichia coli K-12) (UniProt P00811); test: Percentage inhibition against beta-Lactamase in the absence of detergent Triton X-100 was determined at a concentration of 100 uM
# [2] = molecular target: Beta-lactamase (Escherichia coli K-12) (UniProt P00811); test: Percentage inhibition against beta-Lactamase in the presence of detergent 0.01% Triton X-100 was determined at a concentration of 100 uM
compound,measurement,setting,value
COC(=O)C1=C(C)NC(C)=C(C(=O)OCCN(C)Cc2ccccc2)C1c1cccc([N+](=O)[O-])c1 (configuration not stated) [NICARDIPINE],inhibition,[1],81%
same,inhibition,[2],33%
